Here are results for one substance from patent publication US9962341B2, “Active pharmaceutical ingredient (API) comprising cannabinoids for use in the treatment of cancer” (GW Pharma Limited, priority 2014, dated 2018).

The subject of one test is BT474. In words: Cell viability (CellTiter-Blue, 72 h), phytocannabinoids alone and in combination, BT474 breast cancer cells. It counts as cell-based. Particulars: BT474, 10% FBS. As for the experimental part: (§1) The cell lines tested in this Example were as follows. Breast cancer: MDA-MB-231; SK-BR3; and BT474. Liver cancer: HepG2.
(§2) The phytocannabinoids were tested alone and in various ratioed combinations in media containing final concentrations of 10% and 1% foetal bovine serum at 72 h for the breast and prostate cancer lines and 1% foetal bovine serum for the liver cancer line HepG2.
(§3) Each tumour cell line was maintained in vitro in RPMI 1640+10% heat inactivated FBS and 2 mM L-glutamine (growth media) at 37° C. in 5% CO2 and humidified conditions. The cells were harvested, washed, re-suspended into growth medium and counted. […]
(§4) The plates were incubated for 72 h at 37° C. in 5% humidified CO2. […] Fluorescence was measured using a Flex II Station plate reader (570 nm excitation wavelength, 600 nm emission wavelength, 590 nm cut-off) after 3 h. […]
(§5) The raw data values expressed in relative fluorescent units were normalised to the vehicle for each individual plate and any reduction in fluorescence indicated a decrease in viability.
(§6) The data were analysed in GraphPad PRISM using a non-linear sigmoidal plot with variable slope (asymmetric five point linear regression) and where possible an IC50 value for each single compound and combination was generated.

The next test concerns SKBR3. The experiment in a line: Cell viability (CellTiter-Blue, 72 h), SKBR3 breast cancer cells. It counts as cell-based. As for the experimental part: as §1, §2, §3, §4, §5, §6

A word on the IC50: it is the concentration that gives 50% inhibition. For “Herceptin: Herceptin (in the clinical formulation), positive control for the SKBR3 & BT474 cell lines [reference compound]”, the half-inhibitory concentration (IC50) is 0.013 µM in the test with BT474 and above 1 µM in the test with SKBR3 (SKBR3, 1% FBS). In the test with SKBR3 (SKBR3, 10% FBS), the IC50 values result is “NE at 1 μM”.
